Where two headings read alike, the source gives them in different places.
## human growth hormone
Molar ratio of zinc atom to growth hormone 5, zinc acetate in distilled water
  human growth hormone precipitated: about 60%
Molar ratio of zinc atom to growth hormone 7 or more
  human growth hormone precipitated: ~100%
